# From US20030100550A1, “Carboxamide diazepin derivatives, preparation method, use as medicines, pharmaceutical compositions and use thereof” (priority 2002, published 2003)
# By UniProt entry, the sequences of proteins in these tests, tags left out. Residues count along the entry.
# UniProt P00784, 134-345 limits assumed: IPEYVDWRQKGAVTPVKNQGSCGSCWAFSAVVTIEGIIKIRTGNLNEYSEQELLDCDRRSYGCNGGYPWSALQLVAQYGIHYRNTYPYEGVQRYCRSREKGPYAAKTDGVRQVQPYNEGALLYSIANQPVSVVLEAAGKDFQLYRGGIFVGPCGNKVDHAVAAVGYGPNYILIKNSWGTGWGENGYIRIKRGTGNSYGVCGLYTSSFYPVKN
# UniProt P43235, 115-329 limits assumed: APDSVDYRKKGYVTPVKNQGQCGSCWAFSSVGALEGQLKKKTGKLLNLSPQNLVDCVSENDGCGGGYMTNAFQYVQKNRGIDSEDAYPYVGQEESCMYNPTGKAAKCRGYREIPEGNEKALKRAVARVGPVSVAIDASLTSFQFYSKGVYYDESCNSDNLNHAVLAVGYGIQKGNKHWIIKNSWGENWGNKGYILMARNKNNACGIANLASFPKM
# Assays:
# Papain = Papain (Carica papaya, UniProt P00784); test: Study of Papain inhibition (fluorescence); type: biochemical; details: for Papain, percentage in parentheses beside IC50 value (% inhibition): printed beside 20 μM, meaning not explained
# Method: (§1) The products to be tested (10 mM) are diluted to […] in DMSO and distributed into Nunc polystyrene 96 well plates at a rate of 2 μl per well. Column 12 of the plate is reserved for the controls and therefore receives […] of DMSO (without products) per well. The plates are stored at −80° C. and thawed on the day of the experiment.
# (§2) The products are diluted to 50 μM by adding 38 μl of reaction buffer: sodium acetate 100 mM, EDTA 5 mM, DTT […] pH 5.5. The addition as well as all the operations by pipette are carried out with a CybiWell 96 tip pipette. After mixing the solutions, each product is transferred into 2 wells (duplicates) of a Greiner black 384 well plate at a rate of 10 μl per well. Two 96-well plates can therefore be tested in a 384-well plate.
# (§3) A solution of substrate at 50 μM, Z-Val-arg-AMC (Calbiochem), is prepared in the reaction buffer. The substrate, is then distributed into all the wells of the 384-well plate (20 μl per well).
# (§4) A solution of Cathepsin K at 12.5 ng/ml is prepared in the reaction buffer and distributed into all the wells of the 384-well plate (20 μl per well) except for the 16 wells serving as 100% inhibition controls (column 23 and 24, lines I to P) which receive 20 μl of enzyme-free buffer.
# (§5) The plates are then incubated 2H at ambient temperature, then read on Fluoroskan (Labsystems): excitation 390 nm; emission 460 nm
# (§6) The final concentrations of each of the reagents are: products 10 μM, substrate 20 μM, enzyme 5 ng/ml.
# (§7) The % inhibition for each of the products is calculated by using points at 0 and 100% inhibition of each plate as references. The products presenting a significant inhibition are then retested on a range of concentrations from 50 to 0.5 μM to determine an IC50.
# Study of Papain Inhibition:
# (§8) Protocol identical to that of Cathepsin K except for:
# Papain (Sigma), solution at 50 ng/ml, final concentration 20 ng/ml
# Incubation for 30 minutes at ambient temperature
# Cathepsin B = Cathepsin B (Homo sapiens, UniProt P07858); test: Study of Cathepsin B inhibition (fluorescence, Z-arg-arg-AMC); details: printed beside 20 μM; meaning not explained
# Method: as §1, §2, §3, §4, §5, §6, §7
# Study of Cathepsin B Inhibition:
# as §8
# Z-arg-arg-AMC substrate (Calbiochem), solution at 50 μM, final concentration 20 μM
# Cathepsin B (Calbiochem), solution at 40 ng/ml, final concentration 16 ng/ml
# Incubation for 1 hour at ambient temperature
# Cathepsin K = Cathepsin K (Homo sapiens, UniProt P43235); test: Study of Cathepsin K inhibition (fluorescence, Z-Val-arg-AMC); details: for IC50: read-out: Cathepsin K IC50, substrate Z-Val-arg-AMC 20 μM, enzyme 5 ng/ml, 2H at ambient temperature; for Cathepsin K, percentage in parentheses beside IC50 value (% inhibition): printed beside 20 μM, meaning not explained
# Method: Study of Cathepsin K Inhibition:
# as §1, §2, §3, §4, §5, §6, §7
SMILES,"Papain, percentage in parentheses beside IC50 value (% inhibition) (Papain)","Cathepsin B, percentage in parentheses beside IC50 value (% inhibition) (Cathepsin B)",IC50 (Cathepsin K),"Cathepsin K, percentage in parentheses beside IC50 value (% inhibition) (Cathepsin K)","IC50 (Papain; read-out: Papain IC50, enzyme 20 ng/ml, 30 minutes at ambient temperature)"
C=CCOC(=O)CC[C@H](NC(=O)[C@@H]1CCCN2C(=O)CC[C@H](NC(=O)Nc3ccc(Oc4ccccc4)cc3)C(=O)N12)C(=O)CN1CCC(Cc2ccccc2)CC1,20 (20%),25%,20 µM,–,–
CC(C)(C)Oc1ccc(C[C@H](NC(=O)[C@@H]2CCCN3C(=O)CC[C@H](NS(=O)(=O)c4ccc5ccccc5c4)C(=O)N23)C(=O)CSc2nnnn2-c2ccccc2)cc1,–,20 (20%),20 µM,20 (20%),–
CC(C)(C)Oc1ccc(C[C@H](NC(=O)[C@@H]2CCCN3C(=O)CC[C@H](NC(=O)NCCc4cccs4)C(=O)N23)C(=O)CSc2nc3ccccc3s2)cc1,–,–,20 µM,20 (20%),7 µM
C=CCOC(=O)CC[C@H](NC(=O)[C@@H]1CCCN2C(=O)CC[C@H](NC(=O)Nc3ccc(Oc4ccccc4)cc3)C(=O)N12)C(=O)COC(=O)CCCC(=O)OC,18%),–,20 µM,35%,–
CC(C)(C)Oc1ccc(C[C@H](NC(=O)[C@@H]2CCCN3C(=O)CC[C@H](NS(=O)(=O)c4ccc5ccccc5c4)C(=O)N23)C(=O)CSc2nc3ccccc3s2)cc1,–,20 (20%),–,–,–
